Binding of CDR-mutated scFvs to a peptide of the spike HR2 region

From the AlphaSeq antibody data of Engelhart et al. 2022 (doi:10.1038/s41597-022-01779-4), copy in the FLAb collection.

Target: peptide PDVDLGDISGINAS, taken from heptad repeat 2 (HR2) of SARS-CoV-2 spike.

The variants keep the heavy chain, the linker and the frameworks of Ab-14 (scFv order VH, a (GGGGS)3 linker, VL).
VH: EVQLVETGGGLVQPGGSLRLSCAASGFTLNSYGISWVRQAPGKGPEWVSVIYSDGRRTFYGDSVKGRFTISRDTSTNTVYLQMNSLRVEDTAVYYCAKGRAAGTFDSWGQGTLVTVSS
VL: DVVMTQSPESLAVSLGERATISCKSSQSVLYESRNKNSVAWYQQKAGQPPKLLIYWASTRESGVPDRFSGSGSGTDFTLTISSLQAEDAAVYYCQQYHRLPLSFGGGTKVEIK

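In library AAYL50, one, two or three CDR residues were substituted; doubles and triples were drawn at random. The assay is AlphaSeq: two haploid yeast populations carry antibody and antigen on their surface. After mating in shaken culture at 30 °C for 16 h, diploids were selected and their barcode pairs sequenced. Read counts were normalised to the haploid input and turned into Kd by a linear fit to BCL2-family pairs of known affinity, for each replicate. Mating was done three times.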

The parent's light chain CDRs are KSSQSVLYESRNKNSVA, WASTRES, QQYHRLPLS; each variant's own CDRs replace them letter for letter.
This list gathers variants with a substitution at Q95 (VL, numbered from residue 1).
Kd is apparent (estimated from mating counts) and averaged on the log scale over replicates with a signal. Smaller is tighter.
An entry "nd" has no value in the source: the pair was not observed among the diploids in any replicate. This suggests poor binding but is not conclusive.
Parent in this assay: reference entry 4.4 nM, copy in this library 48 nM.
As a blank, each scFv also met three strains without target: over library AAYL50, 18% of these pairings were detected, typically at 15 µM and seldom below 970 nM. The control count says in how many pairings with the empty strains this scFv gave a signal.

Variant KSSQSVLYESRNKNSVA | WASTRES | DQYHRLPLS showed 61 nM (3 of 3 replicates; controls 2 of 9). Variant KSSWSVLYEMRNKNSVA | WASTRES | MQYHRLPLS gave 12 µM (1 of 3 replicates; controls 2 of 9). Variant KSSQSVLYESRNKNSVA | WASTRES | NQYHRLPLS showed 250 nM (3 of 3 replicates; controls 3 of 9). Variant KSSQSVLYESRNSNSVA | WASTRES | TQYHNLPLS gave 23 nM (3 of 3 replicates; controls 6 of 9). With KSSQSVLYESRNKNSVA | WASTAES | HQYHRLKLS the result was nd (0 of 3 replicates; controls 1 of 9). Variant KSSQSVLYESRNKNSVA | WAVTRES | HQYHRRPLS showed 6.4 nM (3 of 3 replicates; controls 1 of 9).

For KSSQSVLYESRNKKSVA | WASTREL | NQYHRLPLS, the assay gave 200 nM (3 of 3 replicates; controls 1 of 9). For KSSQSVLYESRNKNSVA | PASTRES | PQYHRWPLS, the assay gave nd (0 of 3 replicates; controls 0 of 9). For KSSQSVAYESRNKNSVA | WASTRES | VQYHRLPGS, the assay gave 730 nM (3 of 3 replicates; controls 4 of 9). For KSSQSVLYESRNKNSVA | WASTRES | SQYHRLPLS, the assay gave 41 nM (3 of 3 replicates; controls 0 of 9). With KSSHSVLYESRNKNSHA | WASTRES | FQYHRLPLS the result was 3.1 µM (1 of 3 replicates; controls 1 of 9). For KSSQSVLYESRNKNSMA | WASTRES | GQYHRSPLS, the assay gave 4.8 µM (1 of 3 replicates; controls 3 of 9).

For DSSQSVLYESRNENSVA | WASTRES | MQYHRLPLS, the assay gave nd (0 of 3 replicates; controls 1 of 9). Variant KSSQSVLYESRGKNSVA | WASTREC | HQYHRLPLS gave nd (0 of 3 replicates; controls 2 of 9). With KSSQSVLIESRNKNKVA | WASTRES | SQYHRLPLS the result was 6.4 µM (1 of 3 replicates; controls 1 of 9). With KSSQSVLYESRNKNQVA | WASVRES | RQYHRLPLS the result was 6.7 µM (3 of 3 replicates; controls 2 of 9). For KSSQSVLYESRNKNWVA | WASTRES | IQYHRLILS, the assay gave nd (0 of 3 replicates; controls 0 of 9). With KSSSSWLYESRNKNSVA | WASTRES | WQYHRLPLS the result was 3.3 µM (1 of 3 replicates; controls 0 of 9).

With KSSQSVLYESRNKNSVA | WSSTREN | YQYHRLPLS the result was nd (0 of 3 replicates; controls 2 of 9). Variant KDSQSVLYESRNKHSVA | WASTRES | EQYHRLPLS gave 43 nM (3 of 3 replicates; controls 2 of 9). With KVSQSVLYESRNKNSVA | WASTRES | DQYHRLPLS the result was 1.4 µM (3 of 3 replicates; controls 4 of 9). Variant KSSQSVLYESHNKNSVA | WASTRES | TQYHRLPLT gave nd (0 of 3 replicates; controls 1 of 9). Variant KSSQSVLYESRNKNSVA | WASTREH | TQYHRLPNS showed 4.5 µM (1 of 3 replicates; controls 1 of 9). For KSSQSVLYESRNKNSVI | WASTRVS | KQYHRLPLS, the assay gave 18 µM (3 of 3 replicates; controls 4 of 9).

Variant KSSQSVLYESNNKNSVA | WASPRES | YQYHRLPLS showed nd (0 of 3 replicates; controls 1 of 9). For KSSQSVLYESRNKNSVA | KASDRES | IQYHRLPLS, the assay gave nd (0 of 3 replicates; controls 2 of 9). For KSSQSVLYESRNKNDVA | WASTRES | YQYHRYPLS, the assay gave 5.6 µM (1 of 3 replicates; controls 2 of 9). For KSSQSVLAESRNKNSVA | WASTRES | KQYHRLPQS, the assay gave 120 nM (3 of 3 replicates; controls 0 of 9). Variant KSSQSVLYESRNKNVVA | WASVRES | PQYHRLPLS showed nd (0 of 3 replicates; controls 0 of 9). Variant KSSQSVLYESRNKNSVA | WASTRES | HTYHRCPLS gave nd (0 of 3 replicates; controls 1 of 9).

Variant KSSQSVLYESRNKNSVA | WASIRES | AQYHRLPLS showed 1.5 µM (3 of 3 replicates; controls 6 of 9). Variant KNSQSVLYESRFKNSVA | WASTRES | EQYHRLPLS gave nd (0 of 3 replicates; controls 0 of 9). Variant KSDQSVLYESRNKNSWA | WASTRES | FQYHRLPLS showed 37 µM (1 of 3 replicates; controls 1 of 9). Variant KSSQSVLYESRNKNSVA | WASTRES | TQYHRLPLS gave nd (0 of 3 replicates; controls 0 of 9). Variant KSSQSVQYESRNKNSVA | WASTRES | VQYHRLPLS showed 39 nM (3 of 3 replicates; controls 1 of 9). Variant KSSNSVLYESRNKNSVA | WASTRES | GQYGRLPLS gave 270 nM (3 of 3 replicates; controls 5 of 9).

For KSMQSVLYESRNKNSVA | WASTRES | CNYHRLPLS, the assay gave 1.9 µM (1 of 3 replicates; controls 1 of 9). Variant DSSQSVLYESRNKNSVA | WASTRES | HYYHRLPLS gave nd (0 of 3 replicates; controls 0 of 9). For KSSQSVLYEMRNKNSVA | WASTREA | WQYHRLPLS, the assay gave 30 nM (3 of 3 replicates; controls 2 of 9).

Excerpt, the final 4 entries:

CDR-L1	CDR-L2	CDR-L3	Kd (apparent)	detected	signal with controls
KSSNSVLYESRNKNSVA	WASTRES	GQYGRLPLS	270 nM	3/3	5/9
KSMQSVLYESRNKNSVA	WASTRES	CNYHRLPLS	1.9 µM	1/3	1/9
DSSQSVLYESRNKNSVA	WASTRES	HYYHRLPLS	nd	0/3	0/9
KSSQSVLYEMRNKNSVA	WASTREA	WQYHRLPLS	30 nM	3/3	2/9